Laboratory results as given in PubChem BioAssay AID1285 (Columbia University Molecular Screening Center, 2008).
This is a selection; strong and weak results do not stand in their true shares. The source made the active and inactive calls.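 How the source made its calls: active means inhibition above a set limit, derived from the sample mean plus 3 SD (cut at about 45% in these data); inconclusive means one replicate passes the limit while the other fails; inactive means the rest.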

Assay: APP 5'UTR translational reporter suppression – APP 5'UTR luciferase, SH-SY5Y cells, primary screen (AID 1285)
Details: SH-SY5Y APP 5'UTR-luciferase reporter, luminescence; at 2 µM; hits give high values

Row | SMILES | inhibition
1 | COc1ccc(C2=NCC(CBr)S2)cc1 (centres undefined) | inactive: -10.2%
2 | O=[N+]([O-])c1cccc2n[nH]nc12 | inactive: -5.5%
3 | CC(=O)N1C2C3N(C(C)=O)C1C1N(C(C)=O)C(C(N1C(C)=O)N3C(C)=O)N2C(C)=O | inactive: -8.8%
4 | Cc1ccc(NP(=O)(Oc2ccccc2)Oc2ccccc2)nc1 | inactive: -14.2%
5 | CCc1nc2c(n1)c1c(non1O)c1c2no[n+]1[O-] | inactive: 3.7%
6 | O=[N+]([O-])c1cc([N+](=O)[O-])c(CCNc2ccccc2)c([N+](=O)[O-])c1 | inactive: 19.1%
7 | CCN(/C(=N/P(=O)(N1CCOCC1)N1CCOCC1)N1CCOCC1)c1ccc(OC)cc1 | inactive: 2.9%
8 | CN(C)C(=O)OCCc1n(C)cc[n+]1C | inactive: -6.5%
9 | CC1CCN(C(=O)Oc2c(Cl)cc(Cl)c3cccnc23)CC1 | inactive: -6.6%
10 | O=[N+]([O-])c1ncn(CCn2ncnc2[N+](=O)[O-])n1 | inactive: 20.7%
11 | Cc1cc(SC(NC(=O)c2ccc(F)cc2)C(Cl)(Cl)Cl)ncn1 (centres undefined) | inactive: -5.6%
12 | CCOP(=O)(Nc1ccccc1)OCC | inactive: -4.3%
13 | CCN(N=Nc1nonc1N)c1nonc1N | inactive: 4.2%
14 | NC(=O)c1cc([N+](=O)[O-])cc([N+](=O)[O-])c1N | inactive: -9.6%
15 | Cc1ccc(N/C(=N/P(=O)(N2CCOCC2)N2CCOCC2)N2CCOCC2)cc1 | inactive: 3.6%
16 | COc1ccccc1OP(=O)(Nc1ccc(C)cn1)Oc1ccccc1OC | inactive: 7%
17 | CN1CCCC(OC(=O)C(c2ccccc2)c2ccccc2)C1 (centres undefined) | inactive: 8%
18 | Clc1ccc(Cl)c(NC2=NCC(CBr)S2)c1 (centres undefined) | inactive: -4.4%
19 | CC(C)CC(=O)NC(Sc1ccc(Cl)cc1)C(Cl)(Cl)Cl (centres undefined) | inactive: -10.5%
20 | Oc1ccccc1CNc1ccccn1 | inactive: -10%
21 | O=C(NC(Sc1ccncn1)C(Cl)(Cl)Cl)c1ccccc1 (centres undefined) | inactive: -20.7%
22 | Cc1c2non([O-])c-2c(C)[n+](=O)[n+]1[O-] | inactive: 2.5%
23 | O=P1(Nc2nc3ccc(Cl)cc3s2)COc2ccccc2O1 (centres undefined) | inactive: -4.3%
24 | CCOc1ccc(C2=NCC(CBr)S2)cc1 (centres undefined) | inactive: 29.6%
25 | CC(C)(C)C(=O)NC(Sc1ccccc1)C(Cl)(Cl)Cl (centres undefined) | inactive: 5.1%
26 | CC(=O)Nc1ccc(Oc2c([N+](=O)[O-])cc([N+](=O)[O-])cc2[N+](=O)[O-])cc1 | inactive: -8%
27 | CCNC(=S)/N=C(\N)N[N+](=O)[O-] | inactive: -5.4%

Row | SMILES | inhibition
28 | O=C(NC1CCS(=O)(=O)C1)NP(=S)(Oc1ccccc1)Oc1ccccc1 (centres undefined) | inactive: 22.4%
29 | c1ccc(-c2nn[nH]n2)c(-c2nn[nH]n2)c1 | inactive: -22.6%
30 | CCOC(=O)NC(Sc1ccccc1)C(Cl)(Cl)Cl (centres undefined) | inactive: 8.9%
31 | COC(=O)c1cc2c(s1)N=C(c1ccccc1)N(C)P2(=O)N1CCOCC1 (centres undefined) | inactive: 8.6%
32 | Cc1ccc(OP(=O)(Nc2ccccn2)Oc2ccc(C)cc2)cc1 | inactive: -24.1%
33 | CC(=O)NC(SC(=S)N(CC(C)C)CC(C)C)C(Cl)(Cl)Cl (centres undefined) | inactive: -3.2%
34 | CCC(=O)N1C2C3N(C(=O)CC)C1C1N(C(=O)CC)C(C(N1C(=O)CC)N3C(=O)CC)N2C(=O)CC | inactive: 0.9%
35 | O=c1c2cc([N+](=O)[O-])ccc2[nH]c2c([N+](=O)[O-])cc([N+](=O)[O-])cc12 | active: 80.5%
36 | O=P(Nc1ccccn1)(c1ccc(Br)cc1)c1ccc(Br)cc1 | inactive: 11.7%
37 | CC(=O)NC(SC(=S)N(C)C)C(Cl)(Cl)Cl (centres undefined) | inactive: -0.6%
38 | C(Cc1nn[nH]n1)Cc1nn[nH]n1 | inactive: -20.9%
39 | O=C(OC1CN2CCC1CC2)c1cccc(Cl)c1 (centres undefined) | inactive: -0.6%
40 | CC(C)C(=O)NC(Sc1ccccc1)C(Cl)(Cl)Cl (centres undefined) | inactive: -10.3%
41 | O=P(Nc1nccs1)(c1ccccc1)c1ccccc1 | inactive: -6.8%
42 | c1nnnn1CCn1cnnn1 | inactive: -7.2%
43 | O=P1(Nc2ccccn2)COc2ccccc2OC1 | inactive: -13.5%
44 | Clc1n[nH]nc1-c1nn[nH][15n]1 | inactive: 2.4%
45 | CC1(CBr)Cn2c(nc3ccccc3c2=O)S1 (centres undefined) | inactive: 15.4%
46 | CC(C)/C=N\N=C(\N)N[N+](=O)[O-] | inactive: 10.9%
47 | CN(C(=O)Cc1ccc(Cl)c(Cl)c1)[C@@H]1CCCC[C@H]1N1CCCC1 | inactive: 1.7%
48 | Cc1nn(-c2ccccc2)c2c1P(=O)(N1CCOCC1)N(C)C(c1ccccc1)=N2 (centres undefined) | inactive: 1.5%
49 | CC1CCC(C(C)C)C(OP(=O)(Nc2ccccn2)c2ccccc2)C1 (centres undefined) | inactive: 11.1%
50 | CN(C)C1(CNC(=O)c2ccc(S(C)(=O)=O)cc2)CCCCC1 | inactive: -13.6%
51 | O=P1(Nc2ncccn2)COc2ccccc2OC1 | inactive: 1.6%
52 | Cc1ccc(OCC(=O)OC2CN3CCC2CC3)cc1 (centres undefined) | inactive: -7%
53 | O=P1(Nc2ccc(Br)cn2)COc2ccccc2OC1 | inactive: -10.9%
54 | CCOP1(=S)c2c(C)nn(CCC#N)c2N=C(c2ccccc2F)N1C (centres undefined) | inactive: 1.7%

Row | SMILES | inhibition
55 | O=P(Nc1nccs1)(Oc1ccccc1)Oc1ccccc1 | inactive: -9%
56 | O=P(Nc1nccs1)(c1ccccc1)c1nc2ccccc2s1 (centres undefined) | inactive: 26.1%
57 | O=[N+]([O-])c1ccc2c(c1)nnn2O | inactive: 3%
58 | CCOP1(=S)c2c(C)nn(CCC#N)c2N=C(c2ccc(F)cc2)N1C (centres undefined) | inactive: -3.5%
59 | COc1cc(C(=O)NCC2(N3CCOCC3)CCCCC2)cc(Cl)c1OC(C)C | inactive: -2.9%
60 | Cc1cccc(OCC(=O)OC2CN3CCC2CC3)c1 (centres undefined) | inactive: -2.2%
61 | Cc1ccc(NCCc2c([N+](=O)[O-])cc([N+](=O)[O-])cc2[N+](=O)[O-])cc1 | inactive: 17.5%
62 | COc1cc(C2NCCC3(OCCO3)C2(C)C)cc(OC)c1OC (centres undefined) | inactive: 4.4%
63 | CCOP(=O)(Nc1cccc2ccccc12)OCC | inactive: -2.9%
64 | O=C(OC1CN2CCC1CC2)C12CC3CC(CC(C3)C1)C2 (centres undefined) | inactive: 7.5%
65 | Cc1cc(=O)[nH]c(N[N+](=O)[O-])n1 | inactive: -2.3%
66 | Cc1c2c(nc3ccccc13)SC(C(Cl)Cl)C2 (centres undefined) | inactive: 10.2%
67 | COc1ccc2nc(NP(=O)(c3ccccc3)c3ccccc3)sc2c1 | inactive: -26.9%
68 | COc1ccc(N/C(=N/P(=O)(N2CCOCC2)N2CCOCC2)N2CCOCC2)cc1 | inactive: -9%
69 | Cc1ccc2nc3c(c(C)c2c1)CC(C(Cl)Cl)S3 (centres undefined) | inactive: -21%
70 | ClCCSc1nnc(-c2cccnc2)o1 | inactive: -5.8%
71 | CC(C)NC(=O)NP(=O)(Oc1ccccc1)Oc1ccccc1 | inactive: -7.4%
72 | CCN(CC)C(=S)SC(NC=O)C(Cl)(Cl)Cl (centres undefined) | inactive: 1.1%
73 | O=[N+]([O-])c1cc([N+](=O)[O-])c(-c2ccn[nH]2)s1 | inactive: 7.8%
74 | Cc1cc(SC(NC(=O)c2ccccc2)C(Cl)(Cl)Cl)nc(C(C)C)n1 (centres undefined) | inactive: 7.4%
75 | O=P(Nc1ccccn1)(c1cccc2ccccc12)c1cccc2ccccc12 | inactive: -14.7%
76 | Cc1cc(SC(NC=O)C(Cl)(Cl)Cl)ncn1 (centres undefined) | inactive: -20.5%
77 | COP1(=S)c2c(C)nn(CCC#N)c2N=C(c2ccc(F)cc2)N1C (centres undefined) | inactive: 19.2%
78 | O=C(COc1ccccc1)OC1CN2CCC1CC2 (centres undefined) | inactive: 7.1%
79 | CCC(C)N(CC(C)C)C(=S)SC(NC(C)=O)C(Cl)(Cl)Cl (centres undefined) | inactive: -3.5%
